{"sequences": {"note": "The chains behind the UniProt entries cited, without tags or fusion partners.", "UniProt P28482, whole entry, species assumed": "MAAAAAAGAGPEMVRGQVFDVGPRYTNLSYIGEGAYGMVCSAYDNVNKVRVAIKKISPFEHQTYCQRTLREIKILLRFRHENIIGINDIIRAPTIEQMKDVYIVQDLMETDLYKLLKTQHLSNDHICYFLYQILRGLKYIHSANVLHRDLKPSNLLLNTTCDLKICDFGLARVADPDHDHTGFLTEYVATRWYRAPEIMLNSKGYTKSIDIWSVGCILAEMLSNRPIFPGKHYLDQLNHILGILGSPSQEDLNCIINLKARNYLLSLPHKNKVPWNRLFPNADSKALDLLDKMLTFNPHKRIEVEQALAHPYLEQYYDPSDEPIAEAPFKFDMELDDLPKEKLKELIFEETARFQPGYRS"}, "source": "patent US20110110891A1", "about": "“Methods of Treating Hepatitis C Virus Infection” (priority 2008, published 2011)", "origin": "cited, not measured here", "target": "ERK2 (Homo sapiens, UniProt P28482)", "conditions": "read-out: K(i), kinase activity of ERK2; cited from earlier work", "data": [{"smiles": "Nc1n[nH]c2nnc(-c3c(-c4ccccc4)nn4ccccc34)cc12", "note": "[FR180204, 5-(2-phenylpyrazolo[1,5-a]pyridin-3-yl)-1H-pyrazolo[3,4-c]pyridazin-3-amine]", "values": [{"measurement": "Ki", "result": 140, "unit": "nM"}]}]}
